Tested on: serotonin (5-hydroxytryptamine (5HT)) uptake
Experiment: [3H]-Serotonin uptake in rat whole brain and hypothalamic synaptosomes
Format: biochemical
Details: [3H]-5HT 50 nM, 37° C., 5 minutes
Method: [^3 H]-Serotonin Uptake in Rat Whole Brain and Hypothalamic Synaptosomes
Others claim that altered serotonergic function determines the change associated with obsessive-compulsive disorder.
This activity is determined in an assay which measures [^3 H]-serotoninuptake in rat whole brain and hypothalamic synaptosomes. The assay described below is used as a biochemical screen for potential antidepressants which block serotonin (5-hydroxytryptamine (5HT)) uptake.
[^3 H]-5HT transport has been characterized in the central nervous system tissue and found to be saturable, sodium and temperature-dependent,inhibited by ouabain, metabolic inhibitors, tryptamine analogs and tricyclic antidepressants.
Male CR Wistar rats (100-125 g)
1. Krebs-Henseleit Bicarbonate Buffer, pH 7.4 (KHBB):
The batch is aerated for 60 minutes with 95% 02 /5% CO2, the pH is checked to insure it is at 7.4±0.1, then add bovine serum albumin (Sigma cat# A-7906) 1 mg/ml.
3. Sucrose solution: 0.32M sucrose containing 5 mM HEPES and 0.1 mM EDTA; pH to 7.3 using Tris base.
4. A 0.1 mM stock solution of serotonin creatinine SO4 is made up in 0.01N HCl. This is used to dilute the specific activity of the radiolabeled 5HT.
5. 5-[1,2-^3 H(N)]-Hydroxytiyptamine creatinine sulfate (serotonin), specific activity 20-30 Ci/mmol, is used.
The final desired concentration of [^3 H]-5HT in the assay is 50 nM. The dilution factor is 0.8. […]

Compound `CN(C)CCC=C1c2ccccc2CCc2ccccc21` [Amitriptyline, reference compound] has an IC50 of 91 nM.
